Antibody variant affinities, Ab-14 heavy chain, assay 1

Target peptide (SARS-CoV-2 spike, HR2 region): PDVDLGDISGINAS

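The starting antibody came from a phage panning campaign against this peptide. Variants in AAYL49 differ from the parent at up to three CDR positions; double and triple changes were sampled at random. The scFvs were displayed on barcoded MATa yeast, the peptide on MATalpha yeast. Binding brings cells together so that they mate, and sequencing counts the barcode pairs among the diploids. Read counts were normalised to the haploid input and turned into Kd by a linear fit to BCL2-family pairs of known affinity, for each replicate. Each pool was mated in three replicate cultures.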

Parent scFv Ab-14: VH joined to VL by a (GGGGS)3 linker. Changes lie in the heavy chain CDRs alone.
VH: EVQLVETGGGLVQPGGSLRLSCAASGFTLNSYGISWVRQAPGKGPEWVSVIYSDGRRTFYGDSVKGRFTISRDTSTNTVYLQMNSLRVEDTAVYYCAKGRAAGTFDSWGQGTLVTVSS
VL: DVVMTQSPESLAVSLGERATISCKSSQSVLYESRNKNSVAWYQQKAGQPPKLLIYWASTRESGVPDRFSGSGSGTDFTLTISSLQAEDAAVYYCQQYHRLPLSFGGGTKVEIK

Substitutions are numbered in sequence along the VH above, starting at 1 (not Kabat). Numbers give log10(Kd / nM), so 0 is 1 nM and 3 is 1 µM. Smaller is tighter. The mean shown is taken over the replicates in which the pair was detected. "nd" means that the variant was in the library but no mating with the target was seen in any replicate; the authors take this as a sign of poor binding, and no number exists. Background: pairings of library AAYL49 with three empty control strains gave a value in 15% of cases (median 4.06, 5th percentile 2.83). Values in that range, when seen in few replicates, are hard to tell from nonspecific mating. For reference, the parent read 0.65 as the reference entry and 4.11 (one replicate of three) as a member of this library.

changes	mean, log10 nM	detected
S31M Y52Q R56V	nd	0/3
G33Y G99L S107D	4.70	2/3
F27G G99K G103K	1.70	3/3
D54T R56Q D106Y	2.90	1/3
S53E G61C R100N	nd	0/3
G26R Y32K D54V	nd	0/3
G55C Y60G	nd	0/3
D54G G55H Y60M	nd	0/3
T28S T104E F105T	1.53	3/3
F27W G55I G61F	4.40	2/3
G33D R56Q Y60R	6.26	1/3
S63C R100S S107K	3.04	3/3
N30F Y32T Y52P	nd	0/3
I51Q R100S F105M	nd	0/3
G103F F105D	nd	0/3
T28F S35A T104I	nd	0/3
G103V D106C	nd	0/3
S35V D62Y F105T	4.46	2/3
N30Q G55K S63G	3.91	1/3
S31Q R100G T104P	4.30	2/3
S35R V64D G103L	nd	0/3
G55L T58D R100D	nd	0/3
L29Q G55H S63C	nd	0/3
I34R A101E G103L	5.92	2/3
G33K A102C S107W	nd	0/3
T28W Y60K D62Q	nd	0/3
G26R I51M R57G	nd	0/3
R57W T58Q A102E	nd	0/3
G26M G61A K65L	2.05	3/3
G26L L29Y I51C	4.33	1/3
L29G S35G	3.56	2/3
Y52W F59E A102G	3.87	3/3
I51V D106G S107R	nd	0/3
V50L R57E S63L	4.78	2/3
S31R D54C G55R	nd	0/3
T58C V64F A101M	1.59	3/3
N30P Y32H	4.82	2/3
N30L G61N D62M	2.78	1/3
V50Q G55Y R100I	nd	0/3
T28D S31P S53P	nd	0/3
V50D T104K	nd	0/3
I51C Y60C D106Y	nd	0/3
Y52W T58R G61F	4.85	1/3
F27H S31P A101E	3.27	3/3
T28N S53I T58R	3.26	1/3
T28Y S35T K65I	nd	0/3
S31V V64D F105R	4.22	2/3
Y32V A102L S107R	5.09	2/3
T28D S35R V64W	nd	0/3
D62L D106C	3.00	3/3
N30T Y32C I51A	nd	0/3
Y52S A102H T104W	3.24	1/3
N30I Y32F T104S	4.60	3/3
G26S G55F T58C	nd	0/3
I51G K65G S107P	nd	0/3
R56D V64R G99V	nd	0/3
F27W T28L G99S	3.84	1/3
V50P G61R A101Q	4.60	2/3
G26E R56C K65H	5.24	3/3
F27Q Y32G T58S	4.02	1/3
G26S T28W G33V	3.18	1/3
V50M R56F F59I	4.69	2/3
I51A S53F G55V	nd	0/3
V50E S53W T104E	nd	0/3
T28L G33E T104Q	2.91	1/3
G33D I51L K65D	nd	0/3
S31T I34S A102Q	nd	0/3
Y32C G55H V64I	nd	0/3
T28C V64Y S107Y	3.66	2/3
R56M R57K D106E	nd	0/3
F27S T28H	nd	0/3
D54H F59C F105E	nd	0/3
L29M I34F D62H	nd	0/3
G26N S31C Y60E	4.07	1/3

For reference, 10 entries of the list once more:

changes	mean, log10 nM	detected
Y52S A102H T104W	3.24	1/3
S31M Y52Q R56V	nd	0/3
I51C Y60C D106Y	nd	0/3
G26M G61A K65L	2.05	3/3
S35V D62Y F105T	4.46	2/3
L29G S35G	3.56	2/3
G55C Y60G	nd	0/3
G26S T28W G33V	3.18	1/3
G103F F105D	nd	0/3
F27W T28L G99S	3.84	1/3

The measurements come from Engelhart et al. 2022 (doi:10.1038/s41597-022-01779-4) through the FLAb antibody collection.